Chains of the proteins cited; added tags and fusions are not shown.
ATP-dependent Clp protease proteolytic subunit (Bacillus subtilis (strain 168)), P80244, UniProt P80244, whole entry, looked up: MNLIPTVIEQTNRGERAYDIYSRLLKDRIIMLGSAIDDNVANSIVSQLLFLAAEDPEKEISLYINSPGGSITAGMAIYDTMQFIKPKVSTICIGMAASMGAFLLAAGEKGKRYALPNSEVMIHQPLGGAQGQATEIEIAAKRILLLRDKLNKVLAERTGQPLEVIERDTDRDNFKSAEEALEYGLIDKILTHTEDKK

# Source: PubChem
# Only some compounds are listed: those with a hit (about 3.7% of all), similar ones and a draw of the others.
# miR-21 reporter = miR-21 reporter, rising signal; HeLa miR-21 FLuc reporter, luciferase, 48 h; Potency, µM (titrated, usually from 38.3 µM); 340,000 tested, under 10 active; AID 2288; active = well fitted rising curve with a large enough effect; inconclusive = small, poorly fitted or top-dose-only effect; inactive = no such curve, though single readings can be large or run the other way;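 also: miR-21 action dims this reporter so a rising signal means less miR-21 action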
#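 Compounds were titrated across several concentrations (up to approximately 40 uM) and incubated 48 hours with HeLa miR-21-FLuc reporter cells (miR-21 target sequence downstream of FLuc, endogenous miR-21). Readout was firefly luciferase luminescence after lytic detection reagent.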
# Nrf2 activator = activators of Nrf2 (ARE) signaling; AREc32 ARE-luciferase reporter (MCF7-derived line), luminescence, 24 h; Potency, µM (series often up to 46.1 µM), hits mostly activators; hit rate 0.31% among 410,000; note: nearly all actives have a fitted effect of over 65% in size
#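 Luciferase luminescence (Steady-Glo, 30 min at room temperature) served as the read-out of ARE activation in AREc32 cells treated with compounds for 24 hr at 37 deg C.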
# Nrf2 block = inhibitors of Nrf2 signaling. Potency, µM (highest dose often 46 µM), actives largely listed as inhibitors. AID 504444. hit rate 2.1% among 360,000. A549 ARE-Fluc reporter, luciferase luminescence, 18-24 h; note: nearly all actives have a fitted effect of over 60% in size
#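 Two sequential reads on A549 ARE_Fluc cells exposed to compound for 18-24 h: a CellTiter-Fluor fluorescence read for viability, then a luciferase luminescence read for Nrf2/ARE activity.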
# IL2 activator = activates IL-2 in a cell-based reporter assay; IL-2 activation reporter assay, cell-based qHTS; stimulated with anti-CD3/CD4/CD28 beads; in transgenic mouse T cells; activation, % (series mostly up to about 46 µM); hit rate 0.065% among 360,000; in the data active = activation above about 50%; inconclusive = mostly about 30% to 49%
#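 Unstimulated transgenic mouse T cells preincubated 60 min with compound, then stimulated with anti-CD3/anti-CD4-coated beads plus anti-CD28 for 18 h at 37 degrees C. IL-2 response read as EGFP and DsRed fluorescence by plate cytometry.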
# ClpP mod = qHTS Assay for Activators of ClpP; ATP-dependent Clp protease proteolytic subunit (Bacillus subtilis (strain 168)), P80244; purified B. subtilis ClpP, FRET peptide cleavage, 20 min; Potency, µM (doses to about 57.5 µM); hit rate 1.9% among 340,000; active = well fitted falling curve with a large enough effect; inconclusive = small, poorly fitted or top-dose-only effect; inactive = no such curve, though single readings can be large or run the other way; note: the source files actives as falling curves though it sought activators and does not explain the sign; nearly all actives have a fitted effect of over 65% in size
#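 ClpP 10 microg/mL final, pH 8 Tris/KCl buffer with BSA, glycerol, Tween-20; compound pinned in; FRET-FV substrate; RT 20 min; Ex320/Em430; ΔFRET vs ADEP 5.8 microM, DMSO, no enzyme.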
# A549 viability = kills or reduces viability of A549 cells in Nrf2 counter-screen | A549 ARE-Fluc cells, CellTiter-Fluor viability, 18-24 h | Potency, µM (doses to about 46 µM), most hits filed as inhibitors | hit rate 0.16% among 390,000
#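 Cytotoxicity counterscreen: CellTiter-Fluor fluorescence was measured in A549 ARE_Fluc cells after 18-24 h of compound exposure in a concentration series. The subsequent BugLite luminescent read reports ARE-luciferase activity.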
# Hits are given with their value; n = inactive; u = inconclusive; x = not tested or not shown; ! = not confirmed by another sample; [ ] = another dose, or the depositor's remark. Unless noted, calls come from the whole dose curve; as a rule, active = well fitted curve in the direction sought with a large enough effect; inconclusive = small, poorly fitted or top-dose-only effect, or another doubt; inactive = no such curve, though single readings can be large; an effect the other way counts as inactive or inconclusive.
SMILES,miR-21 reporter,Nrf2 activator,Nrf2 block,IL2 activator,ClpP mod,A549 viability
COc1cc2nc(Nc3cccc(F)c3)nc(N)c2cc1OC,n,n,n,n,32µM!,n
COc1ccc(Nc2nc(N)c3cc(OC)c(OC)cc3n2)cc1,n,n,n,x,n,n
Cc1ccc(Nc2nc(C(=O)NCc3ccco3)cs2)cc1,n,n,9.2µM,n,n,x
Cc1csc2ncc(C(=O)NCc3ccco3)c(=O)n12,n,11µM,n,n,20µM,n[1.84 µM]
Cc1ccc2c(CC(=O)Nc3cccc(Cl)c3C)coc2c1,n,n,n,x,n,n
Cc1ccc(OCCC(=O)OCC(=O)c2c(N)n(CC(C)C)c(=O)n(C)c2=O)cc1,x,n,n,n,n,n
Cc1ccccc1OCCC(=O)OCC(=O)c1c(N)n(CC(C)C)c(=O)n(C)c1=O,x,n,u,n,28µM,n
CC(C)Cn1c(N)c(C(=O)COC(=O)c2ccc(Br)cc2)c(=O)n(C)c1=O,x,n,u,n,n,n
Cc1cccc(C(=O)OCC(=O)c2c(N)n(CC(C)C)c(=O)n(C)c2=O)c1[N+](=O)[O-],x,n,u,n,x,n
COC(=O)c1c(C)[nH]c(C(=O)OCC(=O)c2c(N)n(CC(C)C)c(=O)n(C)c2=O)c1C,x,n,15µM,n,x,n
Cc1cccc(C(=O)OCC(=O)c2c(N)n(CC(C)C)c(=O)n(C)c2=O)c1O,x,n,18µM,n,x,n
CC(=O)N1c2ccc(S(=O)(=O)N3CCCCCC3)cc2CC1C(=O)NCc1ccccc1F (stereo not drawn),n,n,x,x,n,n
CN(C)c1ccc(N=Cc2ccnc3ccccc23)cc1,x,x,x,x,n,x
Cc1cc2c(s1)c1cnn(Cc3ccc(Br)cc3F)c(=O)c1n2C,x,x,n,x,x,n
COc1ccccc1-n1cnc2c(c1=O)c1nc3ccccc3nc1n2-c1ccc(C)c(C)c1,n,n,5.8µM,n,u,u
Cc1cc(N2C(=O)c3ccccc3C2=O)n[nH]1,x,x,n,x,x,n
CCN(CC)c1ccc(C(=O)NCc2nc3cccnc3n2Cc2ccc(C)cc2)cc1,n,n,x,x,n,n
CCc1ccc(NC(=O)CSC2=C(C#N)C(c3ccco3)C3=C(CCCC3=O)N2)cc1 (stereo not drawn),n,u,n,n,n,n
N#CC1=C(SCC(=O)c2ccc(Br)cc2)NC2=C(C(=O)CCC2)C1c1ccco1 (stereo not drawn),n,n,18µM,n,n,u
CC(Nc1cc(N2CCNCC2)ccc1[N+](=O)[O-])c1ccccc1 (stereo not drawn),n,n,n,n,28µM,n
CC(=O)/C=C\c1ccccc1OC(=O)c1cc2ccccc2oc1=O,n,n,n,n,n,n
O=C(/C=C\c1ccccc1OC(=O)c1ccccc1F)c1cc2ccccc2o1,n,11µM,u,n,n,u
COc1cc2c(NC3CCN(C)CC3)nc(N3CCCN(C)CC3)nc2cc1OCCCN1CCCCC1,x,x,x,x,n,x
O=C(C[N+]1(CCO)CCOCC1)c1ccc(F)c2ccccc12,x,x,x,x,n,x
Cc1cccc(Cn2c(-c3cccc(Br)c3)nc3ccccc32)c1,n,n,x,x,32µM,n
SMILES,miR-21 reporter,Nrf2 activator,Nrf2 block,IL2 activator,ClpP mod,A549 viability
Cc1nc2ccccc2n1Cc1ccccc1,n,n,21µM,n,n,n
c1ccc(Cc2nc3ccccc3n2Cc2ccccc2)cc1,n,n,n,n,n,n
COCCNC(=O)CCCn1c(SCC(=O)Nc2cccc(C)c2)nc2c(sc3ccccc32)c1=O,n,n,n,x,n,n
COc1ccc(Cl)cc1NS(=O)(=O)c1cccc2cccnc12,n,13µM,u,n,n,n
CCOC(=O)CCC(NC(=O)c1cncc(O)c1)C(=O)OCC (stereo not drawn),n,n,n,n,28µM,n
Cc1cccc(NC(=O)N2CCN3CCCCC3C2)c1C (stereo not drawn),n,n,u,x,n,n
Cc1ccc(OCC(=O)Nc2ccc3nc(SCCOc4ccccc4)sc3c2)cc1,n,n,u,x,n,n
Cc1ccc2occ(/C=C/C(=O)c3ccccc3O)c(=O)c2c1,n,n,x,n,16µM,n
Cc1ccc2occ(/C=N/NC(=O)c3ccccc3O)c(=O)c2c1,u,n,n,n,n,n
NC(=O)c1ccc(-c2ccc(Br)cc2)o1,n,n,n,n,28µM,n
Cc1nc2cc(C(=O)O)ccc2n1-c1ccc(C(C)C)cc1,n,n,n,x,n,n
O=C(CSc1ccc(-c2nc3ccccc3[nH]2)cn1)N1CCN(C(=O)c2ccco2)CC1,n,n,x,n,32µM,n
CC(=O)c1ccc(N2CCN(C(=O)c3cc(S(=O)(=O)N4CCCCCC4)cn3C)CC2)cc1,n,n,x,x,n,n
NS(=O)(=O)c1ccc(N2N=C(c3ccccc3)CC2c2ccccc2Cl)cc1 (stereo not drawn),x,n,21µM,n,n,u
NS(=O)(=O)c1ccc(N2N=C(c3ccccc3)CC2c2ccccc2)cc1 (stereo not drawn),n,n,u,n,n,n
Nc1c(Cl)cc(N=Nc2ccccc2)cc1Cl,x,6.3µM,u,n,x,n
O=C(O)c1ccc(N(c2ccccc2)c2ccccc2)cc1,n,n,x,n,16µM,n
CCN(CC)c1ccc(C(=O)O)cc1,n,n,n,n,n,n
CC1=NN(c2ccccc2)C(=O)/C1=C/C=C/C=C/N(C)C,n,n,u,n,x,10µM
COc1ccc(-n2cc(C(=O)N(C)c3cc(C)ccc3OC)c3ccccc3c2=O)cc1,n,n,n,x,n,n
COc1ccccc1Cn1c(SCC(=O)C(C)(C)C)nc2ccccc2c1=O,n,n,x,x,n,n
CCc1ccc(-c2nn(-c3ccc(OC)cc3)c3c2cnc2ccc(OC)cc23)cc1,n,n,n,x,u,n
CCOc1ccc2ncc3c(-c4cccc(OC)c4)nn(-c4ccccc4)c3c2c1,n,n,n,x,10µM,n
Cc1ccccc1OC(=O)c1cc(-c2ccc3c(c2)OCCO3)on1,n,n,n,x,32µM,n
Cc1cc(C)cc(OC(=O)c2cc(-c3ccc4c(c3)OCCO4)on2)c1,n,n,u,x,32µM,n
Cc1cccc(OC(=O)c2cc(-c3ccc4c(c3)OCCO4)on2)c1C,n,n,u,x,u,n
COc1ccc(OC(=O)c2cc(-c3ccc4c(c3)OCCO4)on2)cc1,n,n,n,x,n,n
O=C(Oc1ccc(Cl)cc1)c1cc(-c2ccc3c(c2)OCCO3)on1,n,n,n,x,u,n
Cc1cccc(OC(=O)c2cc(-c3ccc4c(c3)OCCO4)on2)c1,n,n,u,x,25µM,n
Cn1cncc1CNc1ncnc2ccc(-c3ccc4c(c3)OCO4)cc12,x,x,n,x,x,n
